Values joined by “and” are separate entries in the source; they are usually repeats but may differ in a detail not shown here. Equal entries are not always repeated.
Assays:
[1] = biological target: VX inhibited hAChE (Homo sapiens, UniProt P22303); experiment: In vitro reactivation and reactivation kinetics of VX inhibited hAChE; conditions: for Reactivation rate constant kr / Second order reactivation rate constant kr2: VX inhibited hAChE; for Reactivation rate constant kr / %Reactivation / Kd: 25 °C; for Reactivation rate constant kr: phosphate buffer 0.10 M, nonlinear fit ± SD; for Reactivation rate constant kr / Kd: pH 7.4; for Second order reactivation rate constant kr2: kr2 = kr/KD; for Observed first-order rate constant kobs / %Reactivation: VX-hAChE; for %Reactivation: 30 min; for Kd: read-out: Dissociation constant KD, VX inhibited hAChE-reactivator complex
[2] = biological target: human acetylcholinesterase (hAChE) (Homo sapiens, UniProt P22303); experiment: hAChE inhibition experiment (Ellman method); conditions: 15 min incubation at 25 °C, pH 7.4
[3] = biological target: sarin inhibited hAChE (Homo sapiens, UniProt P22303); experiment: In vitro reactivation and reactivation kinetics of sarin inhibited hAChE; conditions: for Observed first-order rate constant kobs: Sarin-hAChE; for Kd: read-out: Dissociation constant KD, sarin inhibited hAChE-reactivator complex; for Kd / Reactivation rate constant kr / %Reactivation: 25 °C; for Kd / Reactivation rate constant kr: pH 7.4; for Reactivation rate constant kr / Second order reactivation rate constant kr2: sarin inhibited hAChE; for Reactivation rate constant kr: phosphate buffer 0.10 M, nonlinear fit ± SD; for Second order reactivation rate constant kr2: kr2 = kr/KD; for %Reactivation: sarin-hAChE, 30 min
[4] = test system: mice; experiment: In vivo experiment 1: acute toxicity of reactivators administered alone; conditions: 60 mg/Kg ip, reactivator alone (no sarin, no atropine), administrated as acetic salts
[5] = sarin poisoned hAChE, comparison of reactivation efficiency (kr2)

SMILES | Reactivation rate constant kr [1] | Second order reactivation rate constant kr2 [1] | Observed first-order rate constant kobs ([1]; reactivator 10 μM) | %Reactivation ([1]; reactivator 10 μM) | Observed first-order rate constant kobs ([1]; reactivator 25 μM) | %Reactivation ([1]; reactivator 25 μM) | Observed first-order rate constant kobs ([1]; reactivator 50 μM) | %Reactivation ([1]; reactivator 50 μM) | %Reactivation ([1]; reactivator 100 μM) | Kd [1] | IC50 [2] | Observed first-order rate constant kobs ([3]; reactivator 20 μM) | Observed first-order rate constant kobs ([3]; reactivator 50 μM) | Observed first-order rate constant kobs ([3]; reactivator 100 μM) | Kd [3] | Reactivation rate constant kr [3] | Second order reactivation rate constant kr2 [3] | %Reactivation ([3]; reactivator 10 μM) | %Reactivation ([3]; reactivator 25 μM) | %Reactivation ([3]; reactivator 50 μM) | also measured
CCN(CC)Cc1cc(CNc2ccc(C(N)=O)cc2)ccc1O | 70.8 ± 17.4 10^−3min^−1 | 5.47 M⁻¹ s⁻¹ | 2.4±0.2 10-3min-1 | 13.21±1.07% | 5.8±0.6 10-3min-1 | 29.74±1.82% | 11.8±1.1 10-3min-1 | 48.26±1.36% | 68.40±0.80% | 216 µM | > 400 µM and 439 µM | 10.7±0.9 10-4min-1 | 22.8±1.4 10-4min-1 | 41.2±2.3 10-4min-1 | 163 µM | 10.8 ± 0.6 10^−3min^−1 | 1.1 M⁻¹ s⁻¹ | 5.83±0.86% | 5.86±3.25% | 13.90±0.18% | %Reactivation ([3]; reactivator 100 μM): 22.72±0.88%
CCN(CC)Cc1cc(CNc2n[nH]c3ncccc23)ccc1O | 4.9 ± 0.6 10^−3min^−1 | 22 M⁻¹ s⁻¹ | 4.3±0.2 10-3min-1 | 20.76±0.10% | 4.0±0.2 10-3min-1 | 20.29±1.54% | – | – | – | 3.7 µM | < 40 µM and 30.9 µM | 13.8±1.1 10-4min-1 | 14.2±0.8 10-4min-1 | – | 5.31 µM | 1.62 ± 0.11 10^−3min^−1 | 5.07 M⁻¹ s⁻¹ | 7.91±2.58% | 7.51±0.24% | 9.12±0.70% | Fold more efficient than L6R4 [3, 5]: 2 fold; Fold more efficient than L10R4 [3, 5]: 3 fold; Survival (48 h) [4]: 6/6
NC(=O)c1ccc(NCc2ccc(O)c(Cn3ccnc3)c2)cc1 | 369 ± 154 10^−3min^−1 | 104 M⁻¹ s⁻¹ | 13.6±0.9 10-3min-1 | 19.12±2.12% | 56.8±4.0 10-3min-1 | 34.55±0.25% | 191.1±21.9 10-3min-1 | 68.63±3.39% | 90.62±2.47% | 58.8 µM | > 400 µM and 402 µM | 22.7±1.3 10-4min-1 | 41.3±3.6 10-4min-1 | 68.4±4.0 10-4min-1 | 94.8 µM | 13.6 ± 1.2 10^−3min^−1 | 2.38 M⁻¹ s⁻¹ | 13.68±0.78% | 14.99±0.40% | 21.84±1.39% | %Reactivation ([3]; reactivator 100 μM): 30.38±1.58%; Survival (48 h) [4]: 6/6
Oc1ccc(CNc2n[nH]c3ncccc23)cc1Cn1ccnc1 | – | – | 10.6±0.6 10-3min-1 | 44.74±1.10% | 31.4±2.7 10-3min-1 | 75.66±2.13% | 89.7±10.4 10-3min-1 | 92.85±4.21% | 96.42±0.90% | – | > 400 µM and 483 µM | 15.8±1.0 10-4min-1 | 31.1±1.6 10-4min-1 | 47.2±2.0 10-4min-1 | 73.8 µM | 8.40 ± 0.80 10^−3min^−1 | 1.88 M⁻¹ s⁻¹ | 6.33±0.21% | 7.94±1.94% | 17.10±0.09% | %Reactivation ([3]; reactivator 100 μM): 22.52±0.24%; Survival (48 h) [4]: 6/6

Source: article PMC8840479, “Discovery of Novel Non-Oxime Reactivators Showing In Vivo Antidotal Efficiency for Sarin Poisoned Mice” (2022)
